The text below walks through data of patent US20120014911A1, “Regulators of the Interferon-Alpha Receptor 1 (IFNAR1) Chain of the Interferon Receptor” (priority 2009, published 2012).

This series has as its system IFNAR1. Kind of series: Cycloheximide chase of IFNAR1 degradation. The series is classed as cell-based, human. The conditions noted are these: U3A cells, VEGF. The procedure:
Immunoprecipitation and immunoblotting procedures are described elsewhere (Fuchs et al, 1999, Oncogene 18:2039-2046). Protein degradation was carried out by cycloheximide (CHX, used at 20 μg/ml) chase. IFNAR1 internalization assay was carried out using the Fluorescence-based assay as described elsewhere (Kumar et al., 2007, J Cell Biol 179:935-950). BAY 43-9006 was obtained as a gift. Recombinant human IFN-a2 (Roferon) was purchased from Roche. Other reagents or inhibitors were purchased from commercial vendors.
Antibodies against Flag, GST and j3-actin (Sigma), HA (12CA, Roche), CK1α, PICD1/2 (PKCμ), PKD3 (PKCν), Tyk2, intracellular domain of hIFNAR1 and PKR, (Santa Cruz), anti-pan-phospho-tyrosine (4G10), phospho-Stat1 and Stat1 (Cell signaling), phospho-S710 of PKD2 (Biosource), PKD2 (Bethyl Laboratories), mIFNAR1 (Leinco) and ubiquitin (FK2, Biomol) were purchased. AA3, GB8 and EAl2 antibodies which recognize endogenous IFNAR1 (Goldman et al., 1999) and antibodies against IFNAR1 phosphorylated on Ser535 (pS535; (Kumar et al., 2004, J Biol Chem 279:46614-46620)) were described previously. Secondary antibodies conjugated to horseradish peroxidase were purchased from Chemicon and LI-COR. […] Immunoblot detection and quantification were carried out using the LI-COR's Odyssey Infrared Imaging System.

For VEGF, the “proteolytic turnover of Flag-IFNAR1” value is “accelerated”.
